Test: Stability (degradation) of NPs in the circulation of rats after bolus injection
Settings: rat in vivo, i.v. bolus 40 nmol/kg via jugular vein, HPLC / tandem MS peak area

C-type natriuretic peptide [CNP]
NP degraded in the first 5 min (carotid blood at 5 min, mean, n = 5 (Fig. 2a)): 52.2%
NP remaining at 10 min (carotid blood at 10 min, mean, n = 5 (Fig. 2b)): 19.1%
NP remaining at 20 min (carotid blood at 20 min, mean, n = 5 (Fig. 2c)): Less than 10%
NP remaining at 30 min (carotid blood at 30 min, n = 5 (Fig. 2d)): completely degraded
